Assay results: patent publication US8589175B2, “Optimization and individualization of medication selection and dosing” (Children's Hospital Medical Center, priority 2005, dated 2013)

Columns and labels:
CYP2C19 = test: dosing recommendation per CYP2C19 metabolizer subgroup as percentage of usual population dose (Equations 4-6)
Source text: Assuming the goal is to maintain the same AUC for all three subpopulations of patients, the following subpopulation dosing relationships hold: DPM=DEM*(AUCEM/AUCPM) OR DPM=DEM*R if R=(AUCEM/AUCPM) (Equation 2) DIM=DEM*(AUCEM/AUCIM) OR DIM=DEM*S if S=(AUCEM/AUCIM) (Equation 3)
By substituting equations 2 and 3 into equation 1, and then rearranging the equation to solve for the percent dose adjustment needed for each subgroup relative to the population dose: DEM(%)=100/(fEM+fIM*S+fPM*R) (Equation 4) DPM(%)=R*DEM (Equation 5) DIM(%)=S*DEM (Equation 6) Equations 4, 5, and 6 show how the dosing for the more homogeneous subgroups is determined and how the dosing results are expressed as a fraction of the clinician's usual heterogeneous whole group dosages. Determining “Minimal Dose Adjustment Units”
Example: The approach in the previous section leads to individualized initial drug dose recommendations for each of the 3 subgroups (extensive, poor and intermediate metabolizers). Each subgroup represents a specific number of functional alleles for the specific DME (extensive metabolizers have 2 functional, intermediate metabolizers have 1 functional and poor metabolizers have 0 functional). The resultant dosing recommendations are expressed as percentages of the clinician's usual starting dose. It is possible to investigate the effect of increasing numbers of non-functional alleles using these new dosing recommendations. For example, if DRX % is the dosing recommendation for subgroup X expressed as a percentage of the clinician's usual starting dose then the following are true: Effect of […] 1 non-functional allele=(DREM %−DRIM %)/DREM % Effect of 2 non-functional allele=(DREM %−DRPM %)/DREM % Below is a spreadsheet (Table 3) that examines this for CYP2D6, CYP2C19 and CYP2C9. […] 2C9 has 2 MDA units per non-functional allele.

CYP2D6 = conditions: human

2 al/1 al (CYP2C19; human) | UM (%) dosing recommendation (CYP2C19; human) [%] | Compound | 2 al/1 al (CYP2D6) | UM (%) dosing recommendation (CYP2C19; CYP2C19, head prints UM, percent of usual dose) [%] | 2 al/1 al (CYP2C19; CYP2C19, ratio of the two effects) | EM (%) dosing recommendation (CYP2D6) [%]
4.07 | 105 | CN(C)CCC=C1c2ccccc2COc2ccccc21 [doxepin] | 2.02 |  |  | 
 |  | CNCCC(Oc1ccc(C(F)(F)F)cc1)c1ccccc1 (stereo not shown) [fluoxetine] | 2.23 | 107 | 1.76 | 107
